{
  "source": "patent US8992933B2",
  "about": "“Methods for activating T cells and modulating an immune response” (New York University, priority 2011, dated 2015)",
  "key": {"CCR6+ IL-17- TM cells": {"tested_on": "CCR6+ IL-17- TM cells", "assay": "IL-17 induction by cytokine culture of sorted, activated CCR6+IL-17- memory T cells (intracellular staining, FACS)", "format": "cell-based, human", "details": "IL-2-supplemented medium for 6 days, restimulation", "protocol": "(§1) Peripheral Blood Mononuclear Cells (PBMCs) from healthy individuals (New York Blood Center, New York, N.Y.) were prepared using Ficoll-paque plus (GE Amersham, Uppsala, Sweden). Whole blood samples from rheumatoid arthritis patients were purchased from Bioreclamation (New York, N.Y.) and were processed similar to healthy donor blood. All healthy donor and patient samples were consented prior to purchase, were none-identifiable and approved by institutional human subjects board. CD4^+ T cells were isolated using Dynal CD4 Positive Isolation Kit (Invitrogen, Carlsbad, Calif.) directly from purified PBMCs and were >99% pure. CD4^+ T cells were sorted by FACS ARIA cell sorter (BD, San Jose, Calif.) into CD45RO^+ CD25^− memory T (TM) cells. TM cells were activated either by anti-CD3 and anti-CD28 (aCD3/aCD28) coated beads (1:4 beads:cells ratio) for 18-24 hours, or by Phorbol 12-myristate 13-acetate (PMA) and ionomycin for 4 hours and further FACS sorted based on CCR6 and IL-17 expression into CCR6^− IL-17^−, CCR6^+IL-17^+, or CCR6^+IL-17^− subsets (as determined by secretion assay labeling, see below). Sorted cells (>99% pure) were cultured in serum-free Xvivo-15 medium (Lonza, Wakersville, Md.) at 37° C. and 5% CO2 for 6-7 days prior to restimulation with PMA and ionomycin (see below). […]"}, "CCR6- TM cells": {"tested_on": "CCR6- TM cells", "assay": "IL-17 induction by cytokine culture of sorted, activated CCR6-IL-17- memory T cells", "format": "cell-based, human", "details": "cultured with the cytokine, restimulation", "protocol": "as §1"}, "[1]": {"tested_on": "CCR6+ IL-17- memory T cells", "assay": "IL-17 production by sorted mouse memory T cells after culture with IL-2", "format": "cell-based, wild-type C57B/6 mice", "details": "6 days in culture with IL-2; CCR6- cells did not", "protocol": "Wild-type C57B6/J mice were purchased from Jackson Laboratories (Bar Harbor, Me.) and all mice were used in accordance with a protocol approved by the animal care and use committee of Sirtris pharmaceuticals. Single cell suspensions were prepared from spleens and peripheral lymph nodes following red blood cell lysis (Sigma-Aldrich, USA). CD4^+ T cells were enriched by magnetic cell sorting using the mouse CD4^+ T cell isolation kit II (Miltenyi Biotec, Auburn, Calif.) in accordance with manufacturers instructions, and these cells were stimulated for 18-24 hours using plate-bound anti-CD3 (eBioscience) and anti-CD28 (BD Biosciences) antibodies as previously described (Sundrud, et al., Science (New York, N.Y.) 2009 324: 1334-1338). Activated T cells were then stained for cell surface receptors and subjected to mouse IL-17 capture assay for FACS sorting into CD62L^loCCR6^−IL-17^−, CD62L^loCCR6^+IL-17^−, or CD62L^loCCR6^+IL-17^+ subsets (see below). Sorted mouse T cell populations were cultured in DMEM medium (Mediatech, Inc., USA) containing 10% FCS (Invitrogen). To expand sorted T cell populations, 10 U/mL recombinant human IL-2 (BD Biosciences) and mouse CD3/CD28 T cell expander beads (1:2 beads:cells ratio) (Invitrogen) were added and cells were cultured for 6 days prior to restimulation. […]"}, "[2]": {"tested_on": "CCR6+ IL-17- TM cells from RA patients", "assay": "IL-17 induction in memory T cells from rheumatoid arthritis patients after culture with IL-2", "format": "cell-based, human", "details": "similar levels to healthy adult donors, CCR6- cells did not", "protocol": "as §1"}},
  "data": [
    {"substance": "IL-2: recombinant human IL-2 (BD Biosciences), γc-cytokine", "values": [
      {"measurement": "CCR6+ cells initially sorted as IL-17- that expressed IL-17 after culture", "setting": "CCR6+ IL-17- TM cells", "value": "20-40%"},
      {"measurement": "IL-17 expression in CCR6- TM cells", "setting": "CCR6- TM cells", "value": "remained largely IL-17 negative"},
      {"measurement": "IL-17 production by CCR6+ IL-17- mouse memory T cells", "setting": "[1]", "value": "capable of producing IL-17"},
      {"measurement": "IL-17 in CCR6+ IL-17- memory T cells from RA patients", "setting": "[2]", "value": "upregulated IL-17"}
    ]}
  ]
}
